## scFv variants of Ab-95 (light chain) against a SARS-CoV-2 spike peptide

Target: peptide PDVDLGDISGINAS, taken from heptad repeat 2 (HR2) of SARS-CoV-2 spike.

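Variants in AAYL52 differ from the parent at up to three CDR positions; double and triple changes were sampled at random. AlphaSeq pools MATa yeast showing the antibodies with MATalpha yeast showing the peptide. After mating in shaken culture at 30 °C for 16 h, diploids were selected and their barcode pairs sequenced. Scores were corrected for input abundance and mapped to Kd with protein pairs of known affinity run in the same pool. Each pool was mated in three replicate cultures.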

Parent: Ab-95, a human scFv built as VH, a 15-residue (Gly4Ser)3 linker, VL. Only the CDRs of the light chain vary.
VH: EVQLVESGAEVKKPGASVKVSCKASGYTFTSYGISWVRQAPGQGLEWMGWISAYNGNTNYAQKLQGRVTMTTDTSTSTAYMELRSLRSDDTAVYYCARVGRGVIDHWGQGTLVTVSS
VL: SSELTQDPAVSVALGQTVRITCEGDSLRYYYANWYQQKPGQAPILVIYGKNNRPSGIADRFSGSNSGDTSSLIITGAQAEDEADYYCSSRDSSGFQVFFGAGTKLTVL

Substitutions are numbered in sequence along the VL above, starting at 1 (not Kabat). Every variant below is changed at P54 of the VL (sequential numbering). Affinities are written as log10 Kd with Kd in nM; a lower number is a better binder. Replicates are averaged; those with no signal do not enter the mean. An entry "no signal" has no value in the source: the pair was not observed among the diploids in any replicate. This suggests poor binding but is not conclusive.

Variant E23Q/P54I/R90H showed 4.50 (1 of 3 replicates; controls 3 of 9). With E23M/G49P/P54G the result was 3.97 (3 of 3 replicates; controls 1 of 9). With G24C/N51V/P54Q the result was 4.50 (2 of 3 replicates; controls 4 of 9). Variant S26V/P54T/F98A gave 4.29 (3 of 3 replicates; controls 4 of 9). Variant E23V/P54T/S88Q showed 2.52 (1 of 3 replicates; controls 2 of 9). For P54T/S92M/F98A, the assay gave 3.70 (3 of 3 replicates; controls 2 of 9).

With P54N the result was 3.82 (3 of 3 replicates; controls 2 of 9). Variant Y31Q/P54T/V97N showed 2.75 (3 of 3 replicates; controls 5 of 9). For E23P/R28P/P54Y, the assay gave 3.19 (1 of 3 replicates; controls 1 of 9). Variant D25H/R53V/P54K showed 3.47 (3 of 3 replicates; controls 5 of 9). With L27T/P54D/Q96R the result was 3.74 (1 of 3 replicates; controls 0 of 9). Variant R53G/P54V/F98N showed no signal (0 of 3 replicates; controls 1 of 9).

For P54G/S55P/V97S, the assay gave 2.23 (3 of 3 replicates; controls 1 of 9). For A32S/N51I/P54E, the assay gave 4.53 (1 of 3 replicates; controls 5 of 9). Variant P54T/Q96S showed 3.72 (3 of 3 replicates; controls 2 of 9). Variant Y29Q/P54E/F95V showed 3.32 (1 of 3 replicates; controls 3 of 9). Variant N51M/P54L/S55V gave 5.20 (2 of 3 replicates; controls 3 of 9). For A32D/P54E/V97A, the assay gave no signal (0 of 3 replicates; controls 2 of 9).

With G49H/P54D/S92F the result was no signal (0 of 3 replicates; controls 3 of 9). Variant L27V/P54F/S88I showed 3.41 (2 of 3 replicates; controls 5 of 9). Variant N51V/R53S/P54G gave 3.45 (1 of 3 replicates; controls 1 of 9). Variant P54N/S88W/Q96R showed 3.87 (1 of 3 replicates; controls 0 of 9). For P54H/S92P/F95W, the assay gave 5.14 (1 of 3 replicates; controls 4 of 9). Variant D25Q/P54S/S88F showed 3.09 (3 of 3 replicates; controls 3 of 9).

For R53Y/P54M/V97F, the assay gave no signal (0 of 3 replicates; controls 0 of 9). For P54Q/V97M, the assay gave no signal (0 of 3 replicates; controls 3 of 9). For K50N/P54T/R90E, the assay gave 3.27 (3 of 3 replicates; controls 3 of 9). Variant E23P/P54D/F98Q gave 4.28 (2 of 3 replicates; controls 3 of 9). With S26T/P54T/D91I the result was 4.20 (2 of 3 replicates; controls 4 of 9). Variant S26C/P54W/S93H showed 5.54 (1 of 3 replicates; controls 1 of 9).

Variant P54Y/D91L/G94F gave 4.52 (3 of 3 replicates; controls 6 of 9). Variant Y30R/P54Y/S89K showed 3.10 (3 of 3 replicates; controls 4 of 9). Variant G24V/L27V/P54L showed 3.00 (3 of 3 replicates; controls 4 of 9). For G24N/Y31Q/P54C, the assay gave no signal (0 of 3 replicates; controls 1 of 9). With D25V/P54C/S89F the result was 3.08 (1 of 3 replicates; controls 1 of 9). Variant N33C/P54M/D91H showed 3.66 (3 of 3 replicates; controls 6 of 9).

With E23D/G24V/P54S the result was 4.21 (1 of 3 replicates; controls 5 of 9). Variant P54D showed 2.85 (3 of 3 replicates; controls 2 of 9). For D25A/P54V/D91I, the assay gave 3.01 (3 of 3 replicates; controls 1 of 9). With E23V/G49Q/P54V the result was 4.44 (3 of 3 replicates; controls 2 of 9). Variant S26K/P54V/S89H gave 3.77 (2 of 3 replicates; controls 3 of 9).

Top 6 of the variants detected in all replicates, tightest first:

| changes | mean, log10 nM | seen in | control signals |
|---|---|---|---|
| P54G/S55P/V97S | 2.23 | 3/3 | 1/9 |
| Y31Q/P54T/V97N | 2.75 | 3/3 | 5/9 |
| P54D | 2.85 | 3/3 | 2/9 |
| G24V/L27V/P54L | 3.00 | 3/3 | 4/9 |
| D25A/P54V/D91I | 3.01 | 3/3 | 1/9 |
| D25Q/P54S/S88F | 3.09 | 3/3 | 3/9 |

Parent in this assay: reference entry 2.31, copy in this library 2.25. Nonspecific signal, from three strains lacking the peptide, appeared in 28% of pairings of library AAYL52, centred on 3.91 (5% of these signals below 2.90); values are not corrected for it. The control count says in how many pairings with the empty strains this scFv gave a signal.

From the AlphaSeq antibody data of Engelhart et al. 2022 (doi:10.1038/s41597-022-01779-4), copy in the FLAb collection.